Experimental data: ChEMBL document CHEMBL1154587, “Discovery of novel sphingosine kinase 1 inhibitors” (Bioorg Med Chem Lett, 2009)

Sequences of proteins named here, by UniProt entry; tags and fusion partners are left off.
UniProt Q9NYA1, whole entry: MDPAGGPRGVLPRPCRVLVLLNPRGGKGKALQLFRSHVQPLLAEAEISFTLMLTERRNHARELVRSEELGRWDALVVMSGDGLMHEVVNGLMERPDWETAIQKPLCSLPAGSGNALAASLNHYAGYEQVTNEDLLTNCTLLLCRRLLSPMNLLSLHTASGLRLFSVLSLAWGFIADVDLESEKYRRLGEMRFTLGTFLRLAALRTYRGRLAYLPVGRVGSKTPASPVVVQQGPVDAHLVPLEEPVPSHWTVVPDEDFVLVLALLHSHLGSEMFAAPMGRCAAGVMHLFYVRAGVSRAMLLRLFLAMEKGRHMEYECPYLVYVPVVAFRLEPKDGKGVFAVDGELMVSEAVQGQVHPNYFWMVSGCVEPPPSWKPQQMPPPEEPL

Molecular target: Sphingosine kinase 1 (Homo sapiens, UniProt Q9NYA1)
Assay: Inhibition of human sphingosine kinase 1 by off chip mobility shift assay

IC50	SMILES
3.2 µM	CCCCCCCCc1ccc(NC(=O)[C@@H](N)[C@@H](O)CC)cc1 (racemic)
3.5 µM	CCCCCCCCc1ccc(CNC(=O)C(N)CCO)cc1 (racemic)
